Test results from PubChem BioAssay AID493244 (The Scripps Research Institute Molecular Screening Center, 2011).
Only a part is listed here, and it is no random draw. The source made the active and inactive calls.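 How the source made its calls: active means inhibition above the mean inhibition of all tested compounds plus 3 SD (cut at about 17% in these data); inactive means the rest.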

These molecules were tested against Troponin I, cardiac muscle (Homo sapiens) + Troponin T, cardiac muscle (Homo sapiens) + Troponin C, slow skeletal and cardiac muscles (Homo sapiens) (UniProt P19429+P45379+P63316) (assay: calcium desensitizers of cardiac thin filaments – biochemical, IANBD-TnC fluorescence, EC70 calcium, primary screen (AID 493244;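 further: assay run at fixed EC70 calcium of 1.6 mM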)). Settings: IANBD-labeled cardiac RTF, Ca2+ fluorescence; at 7.15 µM; hits give high values.

Question: With CCC(=O)N(c1ccccc1)C1(COC)CCN(CCn2nnn(CC)c2=O)CC1 as the molecule, how does the inhibition read?
Answer: inactive: -4.11%

Question: With CCC(=O)N(c1ccccc1)C1(COC)CCN(CCc2cccs2)CC1 as the molecule, how does the inhibition read?
Answer: inactive: -4.37%
